Values of other authors in patent publication US20250332109A1 (Veradermics, Incorporated, priority 2024, published 2025).

Details: within 24 h after oral administration; hypertensive patients; cited from earlier work

SMILES: Nc1cc(N2CCCCC2)nc(N)[n+]1[O-] [minoxidil]
- radiolabeled drug and metabolites recovered from urine: Over 80%
